Inhibition data for one compound are collected here from patent publication US6555563B1, “Heteroaryl substituted amidinyl and imidazolyl compounds and methods employing same for the treatment of inflammation” (Medinox, Inc., priority 2001, dated 2003).

What is called inhibition is the change of the read-out against control, counted positive when it falls.

The target of the assay is T1, COX-2 (Ovis aries, UniProt P79208).
T1 construct: host or cells: insect cells (membranes, CHAPS-solubilized)
T1 sequence (P79208 17-603): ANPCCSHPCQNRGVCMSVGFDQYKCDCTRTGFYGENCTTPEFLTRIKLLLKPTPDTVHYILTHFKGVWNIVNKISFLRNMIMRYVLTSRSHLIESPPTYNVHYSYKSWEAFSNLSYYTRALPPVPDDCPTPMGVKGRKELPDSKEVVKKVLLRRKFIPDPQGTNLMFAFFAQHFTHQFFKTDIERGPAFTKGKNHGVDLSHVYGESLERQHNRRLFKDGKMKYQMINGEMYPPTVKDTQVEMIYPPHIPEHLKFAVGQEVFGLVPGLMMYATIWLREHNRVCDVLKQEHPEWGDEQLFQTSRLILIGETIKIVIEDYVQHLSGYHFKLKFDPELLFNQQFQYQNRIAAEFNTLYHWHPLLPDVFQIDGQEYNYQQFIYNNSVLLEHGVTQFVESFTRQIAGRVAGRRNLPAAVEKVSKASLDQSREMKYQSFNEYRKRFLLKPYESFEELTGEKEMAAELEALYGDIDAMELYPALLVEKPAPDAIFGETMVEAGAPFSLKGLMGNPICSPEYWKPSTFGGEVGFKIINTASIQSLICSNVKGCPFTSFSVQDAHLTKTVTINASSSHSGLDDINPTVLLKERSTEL
Kind of assay: Assay for COX-2 activity (Ovine), PGE2 formation by ELISA. The assay is classed as biochemical. To be noted: read-out: COX-2 10 nM (% inhibition). The method, then: COX activity was assayed as PGE2 formed/μg protein/time using ELISA to detect prostaglandin release. CHAPS-solubilized insect cell membranes containing the appropriate COX enzyme were incubated in a potassium phosphate buffer (50 mM, pH 8.0) containing Tris-HCl, EDTA, phenol, and heme with the addition of arachidonic acid (10 μM). Compounds were pre-incubated with the enzyme for 5-10 minutes prior to the addition of arachidonic acid. Any reaction between the arachidonic acid and the enzyme was stopped after two minutes at 37° C. The PGE2 formed was measured by standard ELISA technology (Cayman Chemical).

As to `Cc1onc(-c2ccccc2)c1-c1ccc(S(N)(=O)=O)cc1` [Valdecoxib, reference compound], the inhibition at 0.01 µM is 71%.
